# Conditions: microwave 50 °C with cyclopentadiene; nosiheptide 32 h in H2O/TFE; nisin Z 16 h with 0.1 % AcOH (aq.) instead of ddH2O; LC-MS
row,Substance,stability under microwave irradiation
1,nisin Z,good stabilities
2,nosiheptide,good stabilities

# From paper PMC6790694, “Selective Modification of Ribosomally Synthesized and Post‐Translationally Modified Peptides (RiPPs) through Diels–Alder Cycloadditions on Dehydroalanine Residues” (Chemistry (Weinheim an Der Bergstrasse, Germany), 2019)
